## scFv variants of Ab-95 (light chain) against a SARS-CoV-2 spike peptide

Reference: Engelhart et al. 2022, doi:10.1038/s41597-022-01779-4. File: FLAb, binding data.

Binding partner: SARS-CoV-2 spike HR2 peptide, sequence PDVDLGDISGINAS.

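In library AAYL52, one, two or three CDR residues were substituted; doubles and triples were drawn at random. In AlphaSeq, yeast of one mating type display the scFv and yeast of the other type display the target. Binding brings cells together so that they mate, and sequencing counts the barcode pairs among the diploids. Scores were corrected for input abundance and mapped to Kd with protein pairs of known affinity run in the same pool. There are three technical replicates.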

The variants keep the heavy chain, the linker and the frameworks of Ab-95 (scFv order VH, a 15-residue (Gly4Ser)3 linker, VL).
VH: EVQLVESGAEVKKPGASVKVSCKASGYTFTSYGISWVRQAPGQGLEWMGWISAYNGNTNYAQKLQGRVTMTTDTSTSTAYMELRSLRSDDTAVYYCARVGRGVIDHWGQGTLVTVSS
VL: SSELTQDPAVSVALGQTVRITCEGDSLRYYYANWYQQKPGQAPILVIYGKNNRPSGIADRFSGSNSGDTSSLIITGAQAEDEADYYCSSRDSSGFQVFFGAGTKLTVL

Changes read parent residue, position, new residue, counted from the first residue of the VL shown. Every variant below is changed at G49 of the VL (sequential numbering). The Kd shown is the geometric mean over detected replicates; a lower Kd is a better binder. Where no diploid with the target was found in any replicate, the entry reads "nd": below detection, most likely a poor binder, though not proof of it. In this assay the parent's reference entry averaged 200 nM; its copy inside this library read 180 nM. As a blank, each scFv also met three strains without target: over library AAYL52, 28% of these pairings were detected, typically at 8.2 µM and seldom below 800 nM.

Variant G49A S55W S92Y showed 1.6 µM (1 of 3 replicates).
Variant G49C K50F V97L showed 2.1 µM (3 of 3 replicates).
Variant G49A S55Q S88V showed 9.0 µM (2 of 3 replicates).
Variant R28K G49F S92H showed 28 µM (3 of 3 replicates).
Variant G49M R90N S92E showed 8.9 µM (1 of 3 replicates).
Variant G49F S93H F98W showed 4.0 µM (1 of 3 replicates).
Variant Y30G G49M G94D showed 1.1 µM (3 of 3 replicates).
Variant G49S N51V D91H showed 2.8 µM (1 of 3 replicates).
Variant D25T Y30R G49C showed 13 µM (1 of 3 replicates).
Variant G49H S92A S93M showed 57 µM (1 of 3 replicates).
Variant G49A D91R showed 1.5 µM (3 of 3 replicates).
Variant G49L N52V S93V showed 1.6 µM (1 of 3 replicates).
Variant S26N R28G G49C showed 30 µM (2 of 3 replicates).
Variant R28Q A32Y G49T showed 110 µM (1 of 3 replicates).
Variant G49S S88Y D91N showed 2.0 µM (2 of 3 replicates).
Variant G24F G49M R90P showed 3.1 µM (2 of 3 replicates).
Variant E23G Y29T G49E showed 2.9 µM (3 of 3 replicates).
Variant D25P G49F S93M showed 15 µM (1 of 3 replicates).
Variant G24Q Y29H G49I showed 97 µM (2 of 3 replicates).
Variant S26M G49Q Q96I showed nd (0 of 3 replicates).
Variant G49K S93G G94C showed 13 µM (1 of 3 replicates).
Variant G49E N52C V97F showed 1.6 µM (3 of 3 replicates).
Variant G49Y S55K S92H showed 28 µM (3 of 3 replicates).
Variant D25V R28N G49Y showed nd (0 of 3 replicates).
Variant G49P K50H S92H showed 15 µM (2 of 3 replicates).
Variant G49H F98N showed 2.0 µM (1 of 3 replicates).
Variant G49V S55C V97I showed 65 µM (2 of 3 replicates).
Variant G49L K50C S92W showed nd (0 of 3 replicates).
Variant G49Y K50I F95N showed 5.9 µM (1 of 3 replicates).
Variant G49E F95T Q96L showed 34 µM (1 of 3 replicates).
Variant G24N G49Q showed 64 µM (3 of 3 replicates).
Variant N33A G49K N52E showed 6.3 µM (1 of 3 replicates).
Variant Y31Q G49M R53V showed 730 nM (1 of 3 replicates).
Variant G24C G49W R53W showed 11 µM (1 of 3 replicates).
Variant Y29I G49H N52Q showed 10 µM (3 of 3 replicates).
Variant G24R G49Q G94K showed 6.7 µM (1 of 3 replicates).
Variant R28Y G49E F98Y showed nd (0 of 3 replicates).
Variant G49N S89E V97H showed 1.3 µM (3 of 3 replicates).
Variant Y30C G49A S92E showed 490 nM (3 of 3 replicates).
Variant D25F G49C S88H showed 10 µM (1 of 3 replicates).
Variant G49C G94K showed 4.5 µM (1 of 3 replicates).
Variant G49Q N51S S89M showed 7.0 µM (1 of 3 replicates).
Variant D25G G49H F98A showed 21 µM (1 of 3 replicates).
Variant G49F K50S S93N showed nd (0 of 3 replicates).
Variant G24A R28A G49Y showed nd (0 of 3 replicates).
Variant G24A G49F D91N showed 4.0 µM (1 of 3 replicates).
Variant E23G G49Y S88W showed 93 µM (2 of 3 replicates).
Variant D25W G49A R53H showed 3.7 µM (1 of 3 replicates).
Variant R28C G49Y G94Y showed 5.8 µM (2 of 3 replicates).
Variant Y30F G49M N52K showed 19 µM (1 of 3 replicates).

Picked from the list: the 3 lowest averages where every replicate gave a value.

Variant Y30C G49A S92E gave 490 nM (3 of 3 replicates).
Variant Y30G G49M G94D gave 1.1 µM (3 of 3 replicates).
Variant G49N S89E V97H gave 1.3 µM (3 of 3 replicates).